Patent publication US5576436A, “Fluorescent ligands” (Pharmaceutical Discovery Corporation, priority 1994, dated 1996)
Where two headings read alike, the source gives them in different places.

Legend:
Kappa 1 = experiment: Fluorescent ligand binding, kappa1 opioid receptor
kappa1 opioid receptor = experiment: Radioligand ([^3 H]U69,593) binding, kappa1 opioid receptor; settings: read-out: Radiolig. Kd:Ki; Table I

CN(C(=O)Cc1cc(Cl)c(Cl)cc1NC(=O)CCCNC(=O)c1ccc2c(c1)C(=O)OC21c2ccc(O)cc2Oc2cc(O)ccc21)[C@H]1CCCC[C@@H]1N1CCCC1
Bmax (Kappa 1; Table I, density of binding of the ligand): 0.04 pmol/mg prot.
Kd (Kappa 1; read-out: Fluores. Kd, Table I, centrifugation): 10 nM
Kd (Kappa 1; read-out: affinity constant (K) as determined by direct fluorescence measurement, Example 1, binding to receptor in tissue): 10 nM
Ki (kappa1 opioid receptor): 200 nM
